Among the data in US12583836B2 (Anaxis Pharma Pty Ltd, priority 2020, dated 2026) are Kd values, retold here.

By UniProt entry, the sequences of proteins in these tests, tags left out. Where a name states a change or a piece, a line headed by the entry shows the natural chain unless it says otherwise.
UniProt Q9Y572: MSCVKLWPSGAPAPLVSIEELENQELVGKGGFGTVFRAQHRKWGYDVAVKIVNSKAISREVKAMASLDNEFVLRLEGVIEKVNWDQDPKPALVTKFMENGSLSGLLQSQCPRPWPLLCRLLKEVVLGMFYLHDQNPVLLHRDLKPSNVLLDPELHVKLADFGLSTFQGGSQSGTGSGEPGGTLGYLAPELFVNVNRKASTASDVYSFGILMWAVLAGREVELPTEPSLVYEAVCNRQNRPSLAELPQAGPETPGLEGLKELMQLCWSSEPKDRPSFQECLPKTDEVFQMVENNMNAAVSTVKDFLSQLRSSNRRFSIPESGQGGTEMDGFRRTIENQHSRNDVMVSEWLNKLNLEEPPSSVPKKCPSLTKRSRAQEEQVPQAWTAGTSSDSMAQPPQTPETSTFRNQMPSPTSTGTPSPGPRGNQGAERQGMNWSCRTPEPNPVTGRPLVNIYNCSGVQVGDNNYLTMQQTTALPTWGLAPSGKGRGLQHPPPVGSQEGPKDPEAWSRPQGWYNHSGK

pKd: −log10 of the molar value.

Common to all, as to conditions: equilibrium dissociation constant, class symbols
In one experiment the target is T1, MLKL (full length) (Homo sapiens, UniProt Q8NB16).
T1 construct: purchased DiscoverX (KINOMEscan service); host or cells: E. coli BL21-derived (T7 phage) or HEK293
T1 sequence (Q8NB16 1-471): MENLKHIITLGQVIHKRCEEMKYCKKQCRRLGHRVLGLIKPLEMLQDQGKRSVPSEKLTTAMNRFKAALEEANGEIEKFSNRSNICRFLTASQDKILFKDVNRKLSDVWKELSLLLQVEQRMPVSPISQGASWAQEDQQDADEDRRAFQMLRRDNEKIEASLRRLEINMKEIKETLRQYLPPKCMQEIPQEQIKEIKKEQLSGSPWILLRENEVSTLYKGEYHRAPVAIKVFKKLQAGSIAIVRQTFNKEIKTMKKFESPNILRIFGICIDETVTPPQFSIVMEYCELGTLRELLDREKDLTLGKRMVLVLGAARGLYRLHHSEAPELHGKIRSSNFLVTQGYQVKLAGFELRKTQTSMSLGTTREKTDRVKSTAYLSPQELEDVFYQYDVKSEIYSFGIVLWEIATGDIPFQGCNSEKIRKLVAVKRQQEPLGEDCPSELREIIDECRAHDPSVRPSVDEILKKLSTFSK
Description: KINOMEscan binding assay, MLKL.

Another experiment has as its target T2, RIP1 (Homo sapiens, UniProt Q13546).
T2 construct: purchased DiscoverX (KINOMEscan service); host or cells: E. coli BL21-derived (T7 phage) or HEK293
T2 sequence (Q13546 1-671): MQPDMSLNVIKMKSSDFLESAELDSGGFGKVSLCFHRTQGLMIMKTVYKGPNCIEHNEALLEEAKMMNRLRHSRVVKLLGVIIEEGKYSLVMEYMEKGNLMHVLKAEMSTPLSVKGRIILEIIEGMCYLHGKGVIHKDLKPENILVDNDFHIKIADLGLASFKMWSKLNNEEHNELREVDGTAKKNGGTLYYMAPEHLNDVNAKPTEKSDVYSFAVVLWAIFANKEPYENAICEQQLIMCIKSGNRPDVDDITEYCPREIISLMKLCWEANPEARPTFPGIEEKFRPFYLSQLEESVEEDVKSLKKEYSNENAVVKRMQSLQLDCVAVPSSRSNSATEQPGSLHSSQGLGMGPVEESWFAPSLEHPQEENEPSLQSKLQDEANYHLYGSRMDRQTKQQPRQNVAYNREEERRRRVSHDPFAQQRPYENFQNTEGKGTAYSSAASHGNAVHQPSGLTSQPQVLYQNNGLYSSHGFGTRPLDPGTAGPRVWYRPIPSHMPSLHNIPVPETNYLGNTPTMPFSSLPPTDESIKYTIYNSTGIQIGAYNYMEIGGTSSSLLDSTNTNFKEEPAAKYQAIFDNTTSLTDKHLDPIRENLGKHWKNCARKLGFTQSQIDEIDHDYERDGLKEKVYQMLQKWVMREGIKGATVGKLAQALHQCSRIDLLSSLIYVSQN
As to the kind of experiment: KINOMEscan binding assay, RIP1.

The next experiment concerns the target T3, RIP3 (Homo sapiens, UniProt Q9Y572).
T3 construct: purchased DiscoverX (KINOMEscan service); host or cells: E. coli BL21-derived (T7 phage) or HEK293
As to the kind of experiment: KINOMEscan binding assay, RIP3.

What is called pKd is the negative decadic logarithm of the Kd, by convention in mol/L. With `COc1cnc(Nc2[nH]nc(-c3ccc(NS(=O)(=O)CC(F)(F)F)c(OCc4ccc(Cl)cc4)c3)c2C(N)=O)cn1` [Compound 157, 3-(3-((4-chlorobenzyl)oxy)-4-((2,2,2-trifluoroethyl)sulfonamido)phenyl)-5-((5-methoxypyrazin-2-yl)amino)-1H-pyrazole-4-carboxamide], the pKd on MLKL (full length) is more than 8.00; at RIP1, less than 4.52; at RIP3, less than 4.52.

Take `CCS(=O)(=O)Nc1ccc(-c2n[nH]c(Nc3cnc(C4CC4)cn3)c2C(N)=O)cc1` [Compound 158, 5-((5-cyclopropylpyrazin-2-yl)amino)-3-(4-(ethylsulfonamido)phenyl)-1H-pyrazole-4-carboxamide]: the pKd on MLKL (full length) was more than 8.00; at RIP1 it was less than 4.52; at RIP3, less than 4.52.

For `COc1ccc(Nc2[nH]nc(-c3ccc(NS(=O)(=O)CC(F)(F)F)c(OCc4ccc(F)cc4)c3)c2C(N)=O)cn1` [Compound 159, 3-(3-((4-fluorobenzyl)oxy)-4-((2,2,2-trifluoroethyl)sulfonamido)phenyl)-5-((6-methoxypyridin-3-yl)amino)-1H-pyrazole-4-carboxamide], the pKd was more than 8.00 at MLKL (full length), less than 4.52 at RIP1 and less than 4.52 at RIP3.

With `NC(=O)c1c(-c2ccc(NS(=O)(=O)CC(F)(F)F)c(OCc3ccc(F)c(F)c3)c2)n[nH]c1Nc1ccccn1` [Compound 160, 3-(3-((3,4-difluorobenzyl)oxy)-4-((2,2,2-trifluoroethyl)sulfonamido)phenyl)-5-(pyridine-2-ylamino)-1H-pyrazole-4-carboxamide], the pKd at MLKL (full length) was more than 8.00; at RIP1 it was less than 4.52; on RIP3, less than 4.52.

For the molecule `NC(=O)c1c(-c2ccc(NS(=O)(=O)CC(F)(F)F)c(OCc3ccc(Cl)c(F)c3)c2)n[nH]c1Nc1cnccn1` [Compound 165, 3-(3-((4-chloro-3-fluorobenzyl)oxy)-4-((2,2,2-trifluoroethyl)sulfonamido)phenyl)-5-(pyrazin-2-ylamino)-1H-pyrazole-4-carboxamide], the values for the pKd at MLKL (full length), at RIP1 and at RIP3 were more than 8.00, less than 4.52 and less than 4.52, respectively.

As for `NC(=O)c1c(-c2ccc(NS(=O)(=O)CC(F)(F)F)c(OCc3ccc(F)c(F)c3)c2)n[nH]c1Nc1cnccn1` [Compound 175, 3-(3-((3,4-difluorobenzyl)oxy)-4-((2,2,2-trifluoroethyl)sulfonamido)phenyl)-5-(pyrazin-2-ylamino)-1H-pyrazole-4-carboxamide], the pKd is more than 8.00 on MLKL (full length), less than 4.52 on RIP1 and less than 4.52 on RIP3.

On to `NC(=O)c1c(-c2ccc(NS(=O)(=O)CC(F)F)c(OCc3ccc(F)cc3)c2)n[nH]c1Nc1cnccn1` [Compound 180, 3-(4-((2,2-difluoroethyl)sulfonamido)-3-((4-fluorobenzyl)oxy)phenyl)-5-(pyrazin-2-ylamino)-1H-pyrazole-4-carboxamide], for which the pKd on MLKL (full length) is more than 8.00; at RIP1, less than 4.52; at RIP3, less than 4.52.

Turning to `CCS(=O)(=O)Nc1ccc(-c2n[nH]c(Nc3cnc(C(C)(C)C)cn3)c2C(N)=O)cc1` [Compound 181, 5-((5-(tert-butyl)pyrazin-2-yl)amino)-3-(4-(ethylsulfonamido)phenyl)-1H-pyrazole-4-carboxamide], the pKd at MLKL (full length) was more than 8.00; on RIP1 it was less than 4.52; on RIP3 it was 4.52 to 6.00.

For `NC(=O)c1c(-c2ccc(NS(=O)(=O)C(F)F)c(OCc3ccc(F)cc3)c2)n[nH]c1Nc1ccc(C(F)(F)F)nc1` [Compound 188, 3-(4-((difluoromethyl)sulfonamido)-3-((4-fluorobenzyl)oxy)phenyl)-5-((6-(trifluoromethyl)pyridine-3-yl)amino)-1H-pyrazole-4-carboxamide], the pKd was more than 8.00 on MLKL (full length), less than 4.52 on RIP1 and less than 4.52 on RIP3.

Consider `COc1cnc(Nc2[nH]nc(-c3ccc(NS(=O)(=O)C(F)F)c(OCc4ccc(Cl)cc4)c3)c2C(N)=O)cn1` [Compound 190, 3-(3-((4-chlorobenzyl)oxy)-4-((difluoromethyl)sulfonamido)phenyl)-5-((5-methoxypyrazin-2-yl)amino)-1H-pyrazole-4-carboxamide], for which the pKd on MLKL (full length) was more than 8.00; on RIP1, less than 4.52; on RIP3, less than 4.52.

With `COc1cnc(Nc2[nH]nc(-c3ccc(NS(=O)(=O)C(F)F)c(OCc4ccc(F)cc4)c3)c2C(N)=O)cn1` [Compound 191, 3-(4-((difluoromethyl)sulfonamido)-3-((4-fluorobenzyl)oxy)phenyl)-5-((5-methoxypyrazin-2-yl)amino)-1H-pyrazole-4-carboxamide], the pKd at MLKL (full length) was more than 8.00; on RIP1 it was less than 4.52; at RIP3, less than 4.52.

For `CCS(=O)(=O)Nc1ccc(-c2n[nH]c(Nc3ccc(C(F)(F)F)nc3)c2C(N)=O)cc1OCc1ccc(F)cc1` [Compound 194], the pKd on MLKL (full length) is more than 8.00; at RIP1, less than 4.52; on RIP3, less than 4.52.

Consider `COc1ccc(Nc2[nH]nc(-c3ccc(NS(=O)(=O)C(F)F)c(OCc4ccc(F)cc4)c3)c2C(N)=O)cn1` [Compound 196, 3-(4-((difluoromethyl)sulfonamido)-3-((4-fluorobenzyl)oxy)phenyl)-5-((6-methoxypyridin-3-yl)amino)-1H-pyrazole-4-carboxamide], for which the pKd was more than 8.00 on MLKL (full length), less than 4.52 at RIP1 and less than 4.52 at RIP3.

With `CCS(=O)(=O)Nc1ccc(-c2n[nH]c(Nc3cnccn3)c2C(N)=O)cc1OCC1CCN(C)CC1` [Compound 203, 3-(4-(ethylsulfonamido)-3-((1-methylpiperidin-4-yl)methoxy)phenyl)-5-(pyrazin-2-ylamino)-1H-pyrazole-4-carboxamide], the pKd at MLKL (full length) is 6.00 to 8.00; on RIP1 it was less than 4.52; at RIP3, less than 4.52.

As to `NC(=O)c1c(-c2ccc(NS(=O)(=O)C(F)(F)F)cc2)n[nH]c1Nc1cccc(C(F)(F)F)n1` [Compound 205], the pKd on MLKL (full length) is more than 8.00; at RIP1 it was less than 4.52; on RIP3 it was less than 4.52.

Regarding `CCS(=O)(=O)Nc1ccc(-c2n[nH]c(Nc3cnccn3)c2C(N)=O)cc1OCCc1ccccc1Cl` [Compound 206, 3-(3-(2-chlorophenethoxy)-4-(ethylsulfonamido)phenyl)-5-(pyrazin-2-ylamino)-1H-pyrazole-4-carboxamide], the pKd at MLKL (full length) is more than 8.00; at RIP1, less than 4.52; at RIP3, less than 4.52.

Take `CCS(=O)(=O)Nc1ccc(-c2n[nH]c(Nc3cnccn3)c2C(N)=O)c(OC)c1` [Compound 209, 3-(4-(ethylsulfonamido)-2-methoxyphenyl)-5-(pyrazin-2-ylamino)-1H-pyrazole-4-carboxamide]: the pKd at MLKL (full length) was 6.00 to 8.00; on RIP1, less than 4.52; at RIP3, less than 4.52.

As for `CCS(=O)(=O)Nc1ccc(-c2n[nH]c(Nc3cnccn3)c2C(N)=O)cc1OCCc1ccccc1F` [Compound 211, 3-(4-(ethylsulfonamido)-3-(2-fluorophenethoxy)phenyl)-5-(pyrazin-2-ylamino)-1H-pyrazole-4-carboxamide], the values for the pKd at MLKL (full length), on RIP1 and at RIP3 were more than 8.00, less than 4.52 and less than 4.52, respectively.

As for `CCS(=O)(=O)Nc1ccc(-c2n[nH]c(Nc3cnccn3)c2C(N)=O)cc1OCc1cccc(OC(F)(F)F)c1` [Compound 214, 3-(4-(ethylsulfonamido)-3-((3-(trifluoromethoxy)benzyl)oxy)phenyl)-5-(pyrazin-2-ylamino)-1H-pyrazole-4-carboxamide], the pKd on MLKL (full length) was 6.00 to 8.00; on RIP1, less than 4.52; at RIP3, less than 4.52.

Turning to `CCS(=O)(=O)Nc1ccc(-c2n[nH]c(Nc3cnccn3)c2C(N)=O)cc1OCc1ccc(C(F)(F)F)cc1` [Compound 216, 3-(4-(ethylsulfonamido)-3-((4-(trifluoromethyl)benzyl)oxy)phenyl)-5-(pyrazin-2-ylamino)-1H-pyrazole-4-carboxamide], the pKd was 6.00 to 8.00 at MLKL (full length), less than 4.52 at RIP1 and less than 4.52 on RIP3.

`CCS(=O)(=O)Nc1ccc(-c2c(C(N)=O)c(Nc3cnccn3)nn2C)cc1` [Compound 222, 5-(4-(ethylsulfonamido)phenyl)-1-methyl-3-(pyrazin-2-ylamino)-1H-pyrazole-4-carboxamide]: the pKd is more than 8.00 at MLKL (full length), less than 4.52 at RIP1 and less than 4.52 on RIP3.
